Measured values taken from ChEMBL document CHEMBL5046270, “A Selective and Orally Bioavailable Quinoline-6-Carbonitrile-Based Inhibitor of CDK8/19 Mediator Kinase with Tumor-Enriched Pharmacokinetics” (J Med Chem, 2022).

Amino acid sequences for entries named in this document (tags omitted). A change or cut given only in a name is not applied to a line headed by its entry.
UniProt P49336: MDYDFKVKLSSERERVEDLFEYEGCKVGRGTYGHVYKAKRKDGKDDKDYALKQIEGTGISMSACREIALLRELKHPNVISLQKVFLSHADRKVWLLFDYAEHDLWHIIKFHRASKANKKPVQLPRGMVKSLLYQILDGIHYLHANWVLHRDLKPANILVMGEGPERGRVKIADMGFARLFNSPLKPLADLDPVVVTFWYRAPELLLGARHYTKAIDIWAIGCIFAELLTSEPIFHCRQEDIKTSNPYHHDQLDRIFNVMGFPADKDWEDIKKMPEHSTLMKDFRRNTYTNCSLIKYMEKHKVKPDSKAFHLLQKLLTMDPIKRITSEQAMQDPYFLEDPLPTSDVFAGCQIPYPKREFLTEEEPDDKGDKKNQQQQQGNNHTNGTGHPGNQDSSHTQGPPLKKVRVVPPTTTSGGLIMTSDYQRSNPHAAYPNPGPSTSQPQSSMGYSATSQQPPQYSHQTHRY

Columns and labels:
[1] = Inhibition of CDK8/CDK19 in MV4-11 cells and measured after 7 days by Spectra max iD5 microplate reader; format: cell-based, Homo sapiens
[2] = biological target: CDK8/Cyclin C (Homo sapiens, UniProt P49336); test: Binding affinity to kinase tracer 236 binding to His tagged recombinant human CDK8/cyclinC assessed as dissociation constant by TR FRET based assay; format: protein-complex assay

| Structure (SMILES) | IC50 [1] [nM] | Kd [2] [nM] |
| --- | --- | --- |
| CN1CCN(C(=O)c2ccc3nc(CCNc4ccnc5ccc(C#N)cc45)ccc3c2)CC1 | > 1000 |  |
| CN1CCN(C(=O)c2ccc3cc(CCNc4ncnc5ccc(C#N)cc45)ccc3c2)CC1 [SENEXIN B] |  | 1.97 |
